Laboratory results from patent US4857549A, “Antitumor compounds” (priority 1988, dated 1989).

System: M5076 reticulum cell sarcoma
Test: ip M5076 reticulum cell sarcoma assay in mice
Conditions: in words, based on Tables C and D
Method: Another chemosensitive tumor model is intraperitoneally (ip) implanted M5076 reticulum cell sarcoma in mice. In this system B6D2F1 female mice are inoculated with 0.5 ml of a 10 percent weight:volume (w:v) brei of M5076 prepared from pooled subcutaneous (sc) tumors excised at about 21 days from c57B1/6 donor mice. Drugs are administered ip. Daily treatment is begun 24 hours after implantation and is continued for ten days. The treatment regimen for M5076 is more prolonged than for P388 because of the slower growth rate and longer control survival time of the M5076 tumor.

Row | Compound | activity in the ip M5076 reticulum cell sarcoma assay
1 | [Cl][Au]([Cl])([Cl])[PH](CC[PH](c1ccccc1)(c1ccccc1)[Au]([Cl])([Cl])[Cl])(c1ccccc1)c1ccccc1 [Compound 12, μ-[1,2-Bis(Diphenylphosphino)Ethane]Bis[Trichlorogold(III)]] | good activity
2 | [Br][Au][PH](CC[PH]([Au][Br])(c1ccccc1)c1ccccc1)(c1ccccc1)c1ccccc1 [Compound 15] | good activity
3 | FC(F)(F)[S][Au][PH](CC[PH]([Au][S]C(F)(F)F)(c1ccccc1)c1ccccc1)(c1ccccc1)c1ccccc1 [Compound 18, μ-[1,2-Bis(diphenylphosphino)ethane]Bis[trifluoromethyl-thiogold(I)]] | good activity
4 | [Cl][Au][PH](CC[PH]([Au][Cl])(C1CCCCC1)C1CCCCC1)(C1CCCCC1)C1CCCCC1 [Compound 22, μ-[1,2-Bis(Dicyclohexylphosphino)Ethane]Bis[Chlorogold(I)]] | good activity
5 | c1ccc(P(CCP(c2ccccc2)c2ccccc2)c2ccccc2)cc1 [Compound 33, bis(1,2-diphenylphosphino)-ethane] | good activity
6 | CC(CP(c1ccccc1)c1ccccc1)P(c1ccccc1)c1ccccc1 (stereo not drawn) [Compound 35, Bis(1,2-diphenylphosphino)propane] | good activity
